Measured values as given in US8263599B2.

Amino acid sequences for entries named in this document (tags omitted).
UniProt P51692, whole entry: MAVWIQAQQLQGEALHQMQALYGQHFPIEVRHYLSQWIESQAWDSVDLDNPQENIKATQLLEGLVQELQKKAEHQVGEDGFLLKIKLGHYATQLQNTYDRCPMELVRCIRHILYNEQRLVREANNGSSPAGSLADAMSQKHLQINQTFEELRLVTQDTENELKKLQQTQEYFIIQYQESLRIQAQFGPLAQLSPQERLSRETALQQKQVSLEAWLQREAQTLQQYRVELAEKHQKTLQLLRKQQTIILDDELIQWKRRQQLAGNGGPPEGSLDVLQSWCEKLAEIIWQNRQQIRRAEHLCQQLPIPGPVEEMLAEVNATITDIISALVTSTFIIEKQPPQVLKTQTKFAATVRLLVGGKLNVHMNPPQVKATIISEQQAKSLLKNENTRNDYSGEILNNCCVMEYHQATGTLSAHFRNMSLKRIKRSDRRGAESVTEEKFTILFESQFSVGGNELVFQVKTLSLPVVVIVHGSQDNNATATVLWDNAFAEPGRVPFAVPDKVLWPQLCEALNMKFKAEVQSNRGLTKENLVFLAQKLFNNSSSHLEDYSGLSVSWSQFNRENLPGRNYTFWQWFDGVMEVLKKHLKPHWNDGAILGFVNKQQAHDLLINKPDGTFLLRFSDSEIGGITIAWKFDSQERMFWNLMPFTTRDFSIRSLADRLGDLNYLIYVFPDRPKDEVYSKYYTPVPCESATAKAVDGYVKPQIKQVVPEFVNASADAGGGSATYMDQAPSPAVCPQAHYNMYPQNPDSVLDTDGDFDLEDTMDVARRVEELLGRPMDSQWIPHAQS
UniProt P40763, whole entry: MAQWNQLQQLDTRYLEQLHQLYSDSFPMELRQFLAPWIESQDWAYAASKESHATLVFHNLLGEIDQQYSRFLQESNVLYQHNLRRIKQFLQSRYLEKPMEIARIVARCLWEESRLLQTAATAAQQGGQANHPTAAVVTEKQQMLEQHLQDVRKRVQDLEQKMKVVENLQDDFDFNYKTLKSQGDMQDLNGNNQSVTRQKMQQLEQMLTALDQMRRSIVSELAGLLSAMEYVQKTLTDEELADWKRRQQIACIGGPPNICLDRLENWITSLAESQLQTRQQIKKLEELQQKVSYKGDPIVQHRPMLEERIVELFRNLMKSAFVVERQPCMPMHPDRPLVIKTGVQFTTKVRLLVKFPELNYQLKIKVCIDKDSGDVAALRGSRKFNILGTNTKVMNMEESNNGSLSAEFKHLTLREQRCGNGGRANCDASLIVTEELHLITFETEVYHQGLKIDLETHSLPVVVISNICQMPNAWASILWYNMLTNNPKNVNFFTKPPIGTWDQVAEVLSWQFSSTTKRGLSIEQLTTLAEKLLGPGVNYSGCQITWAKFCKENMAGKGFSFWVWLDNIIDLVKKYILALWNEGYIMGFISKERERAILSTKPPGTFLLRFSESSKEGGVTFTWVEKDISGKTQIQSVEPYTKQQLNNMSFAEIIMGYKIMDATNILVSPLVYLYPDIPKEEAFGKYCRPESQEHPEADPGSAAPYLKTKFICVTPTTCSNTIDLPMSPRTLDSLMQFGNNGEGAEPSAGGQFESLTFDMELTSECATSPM

Legend:
STAT5 = STAT5 (Homo sapiens, UniProt P51692); assay: Prolactin-induced STAT5 activation in 22Rv1 cells (TransAM STAT family kit, STAT5B antibody); settings: 1000 nM test compound, 3 h, then prolactin 250 ng/mL for 15 min, cytoplasmic fraction
Description: Effect of test compound on prolactin-induced STAT5 activation in 22Rv1 cells
After 22Rv1 cells cryopreserved are subcultured at least twice, they are subjected to a test. After culture until subconfluency, the cells are washed with D-PBS (−). Thereafter, they are detached using trypsin/EDTA solution and suspended in a medium (RPMI-1640 medium (10% FBS+antibiotics (100 U/mL penicillin+100 μg/mL streptomycin)). The cell suspension solution is centrifuged at 150×g, for 5 minutes at 20 to 25° C. The supernatant is removed and the pellet is resuspended in the medium. An aliquot of the cell suspension solution is taken and dead cells are stained with trypan blue. The number of viable cells is counted by a hemocytometer. A cell suspension solution is prepared so as to contain 2×10^5 cells/mL, and cells are seeded in a 12 well-plate in a rate of 2×10^5 cells/mL per well. Cells are cultured in a CO2 incubator (5% CO2, 37° C.)
(§1) 2) Addition of Test Compound
Two days after seeding, a test compound is added so as to obtain concentrations of 0 and 1000 nM.
Three hours after addition of the test compound, recombinant human prolactin (rhPRL, R&D systems Inc.) is added so as to obtain a concentration of 0 or 250 ng/mL.
3) Extraction of Cytoplasmic Fraction
Fifteen minutes after addition of prolactin, extraction is performed by a Nuclear Extract Kit (Code No. 40410 manufactured by Active Motif Inc.). At 15 minutes after the addition of prolactin, the supernatant is removed and prolactin-stimlation is immediately stopped by adding 1 ml of ice-cold PBS/phosphatase inhibitor. After aspirating 1 mL of ice-cold PBS/phosphatase inhibitor, 0.6 mL of ice-cold PBS/phosphatase inhibitor is added and centrifuged at 200×g, for 5 minutes at 4° C.
After the supernatant is removed, 0.2 mL of hypotonic buffer is added and suspended. After the suspension is kept on ice for 15 minutes, 10 μL of a detergent is added. After the solution is further stirred, it is centrifuged at 14,000×g, for one minute at 4° C. The resultant supernatant (cytoplasmic fraction) is divided to three ice-cold 96-well plates, and stored in a freezer of −80° C.
4) Measurement of Activated STATS
Measurement is performed by use of reagents attached to TransAM™STAT family kit. To describe more specifically, to each of the wells of an ELISA plate of the TransAM™STAT family kit, 30 μL of Complete Binding Buffer is added, and thereafter, 20 μL of the cytoplasmic fraction is added. As a sample for calibration curve, 12 μL of a cell nuclear fraction reference sample (Nb2 nuclear fraction (prolactin stimulated, 2.5 μg/μL)) attached to the TransAM™STAT family kit is diluted with 48 μL of Complete Lysis Buffer (to 10 μg/20 μL), and further serially diluted in half to prepare diluted solutions of 5, 2.5, 1.25, 0.625, 0.313, and 0.156 μg/20 μL. 20 μl of each of the dilution solution is added to well. As a blank, 20 μL of Complete Lysis Buffer is added. After addition of a sample, the plate is sealed and gently shaken at room temperature for one hour. After that, the plate is washed with 200 μL of wash buffer three times. Next, 100 μL of STAT5B antibody is added, sealed and incubated at room temperature without agitation. One hour later, the plate is washed with 200 μL of wash buffer three times. 100 μL of a Horseradish Peroxidase (HRP)-conjugated antibody is added, sealed and incubated at room temperature without agitation. One hour later, the plate is washed with 200 μL of wash buffer four times and 100 μL of a developing solution is added. The plate is incubated for 2 to 10 minutes protected from light. After color development is confirmed, 100 μL of a stop solution is added. Immediately after, absorbance at 450 nm (measurement wavelength) and 630 nm (reference wavelength) is determined using a plate reader.
The amount of phosphorylated STAT5B dimer is estimated based on a calibration curve. […]

STAT3 = STAT3 (Homo sapiens, UniProt P40763); assay: Amount of STAT3 activated in nucleus of Hep G2 cells after stimulation with IL-6 (TransAM STAT3 DNA binding ELISA); settings: test compound 3 h, then IL-6 500 ng/mL for 5 min, nuclear extract
Description: Effect of test compound on the amount of STAT3 activated in nucleus of Hep G2 cells after stimulation with IL-6
After Hep G2 cells are washed with PBS (−) twice, they are washed once with trypsin/EDTA solution and detached using trypsin/EDTA solution. The cells are centrifuged and suspended in a medium supplemented with antibiotics (MEM medium (10% FBS +antibiotic (100 U/mL penicillin+100 μg/mL streptomycin)). After the number of cells is counted, the cells are seeded on 12-well plates at a density of 1.2×10^5 cells/1 mL per well.
Two days after seeding, the culture medium is replaced with 1 mL of antibiotic-free culture medium (MEM medium (10% FBS)).
as §1
Two days after medium replacement, a test compound is added so as to obtain concentrations of 0, 1, 10 and 100 nM.
Three hours after addition of the test compound, IL-6 (Code No. KTS102S manufactured by Kamakura Techno Science Inc.) is added at a final concentration 0 or 500 ng/mL.
Five minutes after addition of IL-6, extraction is performed by use of a Nuclear Extraction Kit (Code No. 40410 manufactured by Active Motif Inc.)
3) Extraction of Nuclear Fraction
The supernatant of the cells is removed by suction. The cells are washed with 1 mL of ice-cold phosphatase inhibitor-containing PBS (hereinafter, PBS/phosphatase inhibitor) and the supernatant of the cells is again removed by suction.
The cells are collected with a cell scraper in 0.6 mL of ice-cold PBS/phosphatase inhibitors and divided into ice-cold 1.5 mL microtubes.
After the microtube is centrifuged at 4° C. and a rate of 400×g for 5 minutes, the supernatant is removed.
The cells are resuspended in 0.2 mL of hypotonic buffer by pipetting up and down several times and kept on ice for 15 minutes.
To this suspension, 10 μL of a detergent is added and vortexed for 10 seconds. After centrifugation is performed at 4° C. and a rate of 20,400×g for 30 seconds, the supernatant is removed.
To the resultant cells, 50 μL of Complete Lysis Buffer is added. The suspension is pipetted, vortexed for 10 seconds and shaken on ice for 30 minutes.
After vortexed for 30 seconds, the suspension is centrifuged at 4° C. and a rate of 20,400×g for 10 minutes.
The supernatant is divided into ice-cold 1.5 mL microtubes and stored at −80° C.
4) DNA Binding is Measured by use of TransAM STAT3 Kit (Code No. 45196 Manufactured by Active Motif Inc.)
To each of the wells of an ELISA plate, 30 μL of Complete Binding Buffer and 20 μL of a sample (extracted from a nucleus) are added.
A positive control: 10 μl of Hep G2 nuclear extract (2.5 mg/mL) is diluted with 40 μL of Complete Lysis Buffer (10 μg/20 μL). Dilutions were prepared at 5, 2.5, 1.25, 0.625 and 0.313 μg/20 μL by sequential half-fold dilution, and 20 μL of dilutions is added to each well.
Blank well: 20 μL of Complete Lysis Buffer is added.
After the plate is sealed, the plate is gently shaken at room temperature for one hour, followed by washing with 200 μL of washing buffer three times.
100 μL of a STAT3 antibody is added and the plate is sealed. Thereafter, the plate is gently shaken at room temperature. One hour later, the plate is washed with 200 μL of washing buffer three times. After washing, 100 μL of an HRP-conjugated antibody is added. The plate is sealed, gently shaken at room temperature for one hour, followed by washing with 200 μL of washing buffer four times.
After that, 100 μL of developing solution returned to room temperature is added, and the plate is incubated for 2 to 10 minutes protected from light. After color development is confirmed, 100 μL of stop solution is added and absorbance at 450 nm and 630 nm is determined within 5 minutes.

Compound | T/C % (amount of phosphorylated STAT5B dimer relative to absence of drug) (STAT5) [%] | pIC50 (STAT3)
CN(CC(=O)N1CCN(Cc2ccc3c(c2)OCO3)CC1)c1ccc(Oc2ccc(C(=O)Nc3ccc(C(F)(F)F)cc3)cn2)cc1C(F)(F)F | <30 | > 6.82
O=C(Nc1ccc(Oc2ccc(CCC(=O)N3CCN(Cc4ccc5c(c4)OCO5)CC3)cc2)nc1)c1ccc(C(F)(F)F)cc1 | <30 | > 6.82
CN(CC(=O)N1CCN(Cc2ccc3c(c2)OCO3)CC1)c1ccc(Oc2ccc(NC(=O)c3ccc(C(F)(F)F)cc3)cc2)cc1 | <30 | > 6.82
CN(c1ccc(N2CCN(CC(=O)N3CCN(Cc4ccc5c(c4)OCO5)CC3)CC2)cc1)c1ccc(NC(=O)c2ccc(C(F)(F)F)cc2)cn1 | <30 | > 6.82
Cc1cc(NC(=O)C(=O)N2CCN(Cc3ccc4c(c3)OCO4)CC2)ccc1Oc1ccc(N(C)Cc2ccc(C(F)(F)F)cc2)cn1 | <30 | > 6.82
Cc1cc(N(C)CC(=O)N2CCN(Cc3ccc4c(c3)OCO4)CC2)ccc1Oc1ccc(NC(=O)c2ccc(C(F)(F)F)cc2)cn1 | <30 | > 6.82
CN(c1ccc(CCC(=O)N2CCN(Cc3ccc4c(c3)OCO4)CC2)cc1)c1ccc(NC(=O)c2ccc(C(F)(F)F)cc2)cn1 | <30 | > 6.82
Cc1cc(N2CCC(CC(=O)N3CCN(Cc4ccc5c(c4)OCO5)CC3)CC2)ccc1Oc1ccc(NC(=O)c2ccc(C(F)(F)F)cc2)cn1 | <30 | > 6.82

pIC50: −log10 of the molar value.
